# Source: PubChem BioAssay AID435005 (Broad Institute, 2010)
# The list shows a part of the results, in another mix than the full data. Active and inactive are the calls of the source.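 How the source made its calls: active means Every replicate reaches about 75%, or at least half do and their mean reaches it too (limit read from the data); inconclusive means At least half of replicates reach the limit but their mean does not; inactive means Under half of replicates reach the limit.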
# Assay: INS-1E beta cell survival under cytokines – luminescence, primary screen (AID 435005);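 further: 0% = cytokine-treated negative control wells and 100% = positive control rescue; higher means more ATP so stronger rescue from cytokine killing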
# Conditions: INS-1E cytokine-induced death, ATP luminescence, 48 h; hits give high values; percent of positive-control rescue, neutral wells zero; concentration not given here
row,SMILES,protection from apoptosis
1,C[N+]1=C2C=CC=CC=C2SC12C([N+](=O)[O-])=CC([N+](=O)[O-])=C[C-]2[N+](=O)[O-] (configuration not stated),active: 104%
2,O=[N+]([O-])c1cc([N+](=O)[O-])c(-c2ccn[nH]2)s1,active: 106%
